Patent US10059720B2, “Pyridine derivative” (Astellas Pharma Inc., priority 2014, dated 2018)
Structures can show the parent of a compound that is named as a salt. Where two headings read alike, the source gives them in different places. Marks after values point to notes of the source that are not given here.

Conditions: water load 30 ml/kg 1 h after dosing, urine volume 1 h after water loading, vs vehicle control

Q: For `CC(C)C[C@H](N)[C@](O)(Cc1cc(O[C@H]2CC[C@H](C)CC2)ccn1)C(=O)O` (relative stereo) [Example 6, (2R,3S)-3-amino-2-hydroxy-5-methyl-2-({4-[(trans-4-methylcyclohexyl)oxy]pyridin-2-yl}methyl)hexanoic acid dihydrochloride], which “Inhibition of urination (%)” value (3 mg/kg oral) is on record?
A: Its value is 96%.

Q: With `CC(C)C[C@H](N)[C@](O)(Cc1cc(OCCC2CC2)ccn1)C(=O)O` [Example 1, (2R,3S)-3-amino-2-{[4-(2-cyclopropylethoxy)pyridin-2-yl]methyl}-2-hydroxy-5-methylhexanoic acid] as the compound, how does the “Inhibition of urination (%)” value (3 mg/kg oral) read?
A: The value was 88%.

Q: Which “Inhibition of urination (%)” value (3 mg/kg oral) does the source give for `CC(C)C[C@H](N)[C@](O)(Cc1cc(OC2CCCCC2)ccn1)C(=O)O.Cl.Cl` [Example 3, (2R,3S)-3-amino-2-{[4-(cyclohexyloxy)pyridin-2-yl]methyl}-2-hydroxy-5-methylhexanoic acid dihydrochloride] here?
A: Its value is 59%.

Q: With `CC(C)C[C@H](N)[C@](O)(Cc1cc(OC2CCC3(CC2)CC3)ccn1)C(=O)O` [Example 4, (2R,3S)-3-amino-2-hydroxy-5-methyl-2-{[4-(spiro[2.5]octa-6-yloxy)pyridin-2-yl]methyl}hexanoic acid] as the compound, how does the “Inhibition of urination (%)” value (3 mg/kg oral) read?
A: Its value is 93%.

Q: Which “Inhibition of urination (%)” value (3 mg/kg oral) does the source give for `C[C@H]1CC[C@H](Oc2ccnc(C[C@](O)(C(=O)O)[C@@H](N)CSCC3CC3)c2)CC1` [Example 5, (2R,3R)-3-amino-4-[(cyclopropylmethyl)sulfanyl]-2-hydroxy-2-({4-[(trans-4-methylcyclohexyl)oxy]pyridin-2-yl}methyl)butanoic acid] here?
A: Its value is 90%.

Q: With `N[C@@H](CCC1CCC1)[C@](O)(Cc1cc(OCCC2CC2)ccn1)C(=O)O` [Example 9, (2R,3S)-3-amino-5-cyclobutyl-2-{[4-(2-cyclopropylethoxy)pyridin-2-yl]methyl}-2-hydroxypentanoic acid] as the compound, how does the “Inhibition of urination (%)” value (3 mg/kg oral) read?
A: Its value is 82%.

Q: With `CCCCSc1ccnc(C[C@](O)(C(=O)O)[C@@H](N)CC(C)C)c1` [Example 18, (2R,3S)-3-amino-2-{[4-(butylsulphanyl)pyridin-2-yl]methyl}-2-hydroxy-5-methylhexanoic acid] as the compound, how does the “Inhibition of urination (%)” value (3 mg/kg oral) read?
A: Its value is 52%.

Q: With `CC(C)C[C@H](N)[C@](O)(Cc1nccc2oc(CCC3CC3)cc12)C(=O)O` [Example 20, (2R,3S)-3-amino-2-{[2-(2-cyclopropylethyl)furo[3,2-c]pyridin-4-yl]methyl}-2-hydroxy-5-methylhexanoic acid] as the compound, how does the “Inhibition of urination (%)” value (3 mg/kg oral) read?
A: Its value is 94%.

Q: For `CC(C)C[C@H](N)[C@](O)(Cc1cc(OCCC2(C)CC2)ccn1)C(=O)O` [Example 28], which “Inhibition of urination (%)” value (3 mg/kg oral) is on record?
A: The value was 92%.

Q: With `CC(C)C[C@H](N)[C@](O)(Cc1cc(OCCCC2CC2)ccn1)C(=O)O` [Example 29] as the compound, how does the “Inhibition of urination (%)” value (3 mg/kg oral) read?
A: Its value is 93%.

Q: Which “Inhibition of urination (%)” value (3 mg/kg oral) does the source give for `CC(C)C[C@H](N)[C@](O)(Cc1cc(OC2CCCCCC2)ccn1)C(=O)O` [Example 41] here?
A: The value was 55%.

Q: With `CCCC[C@@H](C)Oc1ccnc(C[C@](O)(C(=O)O)[C@@H](N)CC(C)C)c1` [Example 55] as the compound, how does the “Inhibition of urination (%)” value (3 mg/kg oral) read?
A: The value was 91%.

Q: For `CC(C)C[C@H](N)[C@](O)(Cc1nccc2c1CC(CCC1CC1)O2)C(=O)O` (some centres unmarked) [Example 83], which “Inhibition of urination (%)” value (3 mg/kg oral) is on record?
A: Its value is 80%.

Q: Which “Inhibition of urination (%)” value (3 mg/kg oral) does the source give for `C[C@H]1CC[C@H](Oc2ccnc(C[C@](O)(C(=O)O)[C@@H](N)COc3ccc(F)cn3)c2)CC1` [Example 84] here?
A: Its value is 64%.

Q: With `C=CCCOC[C@H](N)[C@](O)(Cc1cc(O[C@H]2CC[C@H](C)CC2)ccn1)C(=O)O` [Example 88] as the compound, how does the “Inhibition of urination (%)” value (3 mg/kg oral) read?
A: Its value is 89%.

Q: Which “Inhibition of urination (%)” value (3 mg/kg oral) does the source give for `CC(C)C[C@H](N)[C@](O)(Cc1cc(O[C@H](C)Cc2ccccc2)ccn1)C(=O)O` [Example 92] here?
A: The value was 61%.

Q: With `CSC[C@H](N)[C@](O)(Cc1cc(O[C@H]2CC[C@H](C)CC2)ccn1)C(=O)O` [Example 103, (2R,3R)-3-amino-2-hydroxy-2-({4-[(trans-4-methylcyclohexyl)oxy]pyridin-2-yl}methyl)-4-(methylsulfanyl)butanoic acid] as the compound, how does the “Inhibition of urination (%)” value (1 mg/kg oral (value marked *)) read?
A: Its value is 92* %.

Q: Which “Inhibition of urination (%)” value (3 mg/kg oral) does the source give for `CCSC[C@H](N)[C@](O)(Cc1cc(O[C@H]2CC[C@H](C)CC2)ccn1)C(=O)O` [Example 105, (2R,3R)-3-amino-4-(ethylsulfanyl)-2-hydroxy-2-({4-[(trans-4-methylcyclohexyl)oxy]pyridin-2-yl}methyl)butanoic acid] here?
A: The value was 98%.

Q: With `N[C@@H](COCCC1CC1)[C@](O)(Cc1cc(OCCC2CC2)ccn1)C(=O)O` [Example 110] as the compound, how does the “Inhibition of urination (%)” value (3 mg/kg oral) read?
A: Its value is 57%.

Q: Which “Inhibition of urination (%)” value (3 mg/kg oral) does the source give for `CC(C)C[C@H](N)[C@](O)(Cc1cc(SCCC2CC2)ccn1)C(=O)O` [Example 111] here?
A: Its value is 57%.

Q: Which “Inhibition of urination (%)” value (3 mg/kg oral) does the source give for `CC(C)C[C@H](N)[C@](O)(Cc1cc(S[C@H]2CC[C@H](C)CC2)ccn1)C(=O)O` [Example 119] here?
A: Its value is 97%.

Q: With `N[C@@H](CSCCC1CC1)[C@](O)(Cc1cc(OCCCC2CC2)ccn1)C(=O)O` [Example 139] as the compound, how does the “Inhibition of urination (%)” value (3 mg/kg oral) read?
A: Its value is 90%.

Q: With `CCSC[C@H](N)[C@](O)(Cc1cc(OCCCC2CC2)ccn1)C(=O)O` [Example 143] as the compound, how does the “Inhibition of urination (%)” value (3 mg/kg oral) read?
A: Its value is 100%.
